The values below come from patent publication US20230365568A1.

Sequences of proteins named here, by UniProt entry; tags and fusion partners are left off.
UniProt P53350, whole entry: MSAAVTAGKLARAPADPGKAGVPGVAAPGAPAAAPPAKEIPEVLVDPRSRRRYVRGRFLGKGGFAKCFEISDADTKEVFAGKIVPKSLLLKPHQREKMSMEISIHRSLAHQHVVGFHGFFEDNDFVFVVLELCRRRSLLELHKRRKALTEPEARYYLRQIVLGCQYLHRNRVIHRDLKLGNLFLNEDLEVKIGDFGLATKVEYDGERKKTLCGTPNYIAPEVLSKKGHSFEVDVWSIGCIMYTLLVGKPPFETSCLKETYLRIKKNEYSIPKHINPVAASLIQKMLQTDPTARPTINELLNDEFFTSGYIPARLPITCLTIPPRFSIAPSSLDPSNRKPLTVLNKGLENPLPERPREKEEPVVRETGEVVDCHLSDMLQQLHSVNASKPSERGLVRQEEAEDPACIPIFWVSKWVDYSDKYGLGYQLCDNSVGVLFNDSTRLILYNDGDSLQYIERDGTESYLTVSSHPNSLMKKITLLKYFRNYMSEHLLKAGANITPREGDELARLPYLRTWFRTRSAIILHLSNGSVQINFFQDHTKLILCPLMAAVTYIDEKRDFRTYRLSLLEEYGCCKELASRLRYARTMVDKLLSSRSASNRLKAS

The conditions of series [1]: data from Alverez et al., 2020, cited from earlier work.
For series [2] the following is noted: data from Alverez et al., 2020, cited from earlier work. This is another data set of the same source.
The conditions of series [3]: data from Alverez et al., 2020, cited from earlier work. This is another data set of the same source.
For the next series, the target named is full-length human Plk1 (Homo sapiens (Human), UniProt P53350). As to the kind of experiment: ELISA-based Plk1 PBD-binding inhibition assay. The settings on record: read-out: IC50 ± sd (μM, ELISA), at least three independent experiments.

Structures are written as SMILES. Where two headings read alike, the source gives them in different places. Marks after values point to notes of the source that are not given here.

As to `COc1cccc(CC(=O)NCCCn2c(=O)c3cc(F)ccc3n3c(=S)[nH]nc23)c1`, in series [1] (tested form: TFA), the “Solub.” value is >65 µg/mL. Also, the “PAMPA” value in series [2] (tested form: TFA) was 300 ×10⁻⁶ cm/s.
Take `N#Cc1ccc(CC(=O)NCCCn2c(=O)c3cc(F)ccc3n3c(=S)[nH]nc23)cc1`: the “t1/2 (min, RLM)” value in series [3] (tested form: TFA) is >30 min. For the same compound, the “Solub.” value in series [1] (tested form: TFA) is 2.0 µg/mL. The “PAMPA” value in series [2] (tested form: TFA) is 172 ×10⁻⁶ cm/s.
For the compound `O=C(Cc1ccc(I)cc1)NCCCn1c(=O)c2cc(F)ccc2n2c(=S)[nH]nc12`, the IC50 at full-length human Plk1 is 2.4 µM.
On the same count and under the same terms, the value for `O=C(Cc1ccc(N=C=S)cc1)NCCCn1c(=O)c2cc(F)ccc2n2c(=S)[nH]nc12` was 1.4 µM.
Consider `O=c1c2cccc(F)c2n2c(=S)[nH]nc2n1CCc1ccccc1`, for which the “t1/2 (min, RLM)” value in series [3] (tested form: TFA) is given as >30 min. For the same compound, in series [1] (tested form: TFA), the “Solub.” value is 3.4 µg/mL. For the same compound, in series [2] (tested form: TFA), the “PAMPA” value is 141 ×10⁻⁶ cm/s.
As to `CCCn1c(=O)c2ccccc2n2c(=S)[nH]nc12` [compound 21], the “t1/2 (min, RLM)” value in series [3] is on record as >30 min. Further, the “Solub.” value in series [1] is 21.3 µg/mL. Also, the “PAMPA” value in series [2] was 37.0 ×10⁻⁶ cm/s.
For the compound `O=c1c2ccccc2n2c(=S)[nH]nc2n1CCC(F)(F)F` [compound 27], the “t1/2 (min, RLM)” value in series [3] (tested form: TFA) is >30, min. Moreover, the “Solub.” value in series [1] (tested form: TFA) is 23.3 µg/mL. The “PAMPA” value in series [2] (tested form: TFA) was 82 ×10⁻⁶ cm/s.
Consider `CCCn1c(=O)c2cc(F)ccc2n2c(=S)[nH]nc12` [compound 64], for which the “t1/2 (min, RLM)” value in series [3] is recorded as >30 min. In addition, in series [1], the “Solub.” value was >28 µg/mL. Besides, the “PAMPA” value in series [2] was 195 ×10⁻⁶ cm/s.
With `O=c1c2cc(F)ccc2n2c(=S)[nH]nc2n1CCC(F)(F)F` [compound 65], the “t1/2 (min, RLM)” value in series [3] (tested form: TFA) was >30 min. Also, the “Solub.” value in series [1] (tested form: TFA) was 17.3 µg/mL. Also, in series [2] (tested form: TFA), the “PAMPA” value was 117 ×10⁻⁶ cm/s.
With `NCCCn1c(=O)c2cc(F)ccc2n2c(=S)[nH]nc12` [compound 68], the “t1/2 (min, RLM)” value is listed as >30^c >30^d min in series [3] (Free base, tested form: TFA) and >30^c >30^d min in series [3] (TFA salt, tested form: TFA). The “Solub.” value was 27 µg/mL in series [1] (Free base, tested form: TFA) and > 43 µg/mL in series [1] (TFA salt, tested form: TFA). The “PAMPA” value in series [2] (Free base, tested form: TFA) was 16.8 ×10⁻⁶ cm/s; in series [2] (TFA salt, tested form: TFA) it was < 1 ×10⁻⁶ cm/s.
Take `O=c1c2cc(F)ccc2n2c(=S)[nH]nc2n1CC1CC1` [compound 79]: the “t1/2 (min, RLM)” value in series [3] (tested form: TFA) was >30 min. Moreover, in series [1] (tested form: TFA), the “Solub.” value is 16.2 µg/mL. For the same compound, the “PAMPA” value in series [2] (tested form: TFA) was 46.0 ×10⁻⁶ cm/s.
In the case of `O=c1c2cc(F)ccc2n2c(=S)[nH]nc2n1CCc1ccncc1` [compound 85], the “t1/2 (min, RLM)” value in series [3] (tested form: TFA) is recorded as >30 min. Also, the “Solub.” value in series [1] (tested form: TFA) was 10.9 µg/mL.
For the compound `O=C(Cc1ccc(O)cc1)NCCCn1c(=O)c2cc(F)ccc2n2c(=S)[nH]nc12` [compound 127], the “t1/2 (min, RLM)” value in series [3] (tested form: TFA) is >30 min. In addition, the “Solub.” value in series [1] (tested form: TFA) was 31.0 µg/mL.

For orientation: IC50 means the concentration at which inhibition is half-maximal.
